# Tested on: rats
# Test: Drug discrimination experiment in rats
# Settings: 0.1 mg/kg, 1.0 mg/kg, substitution for morphine 4 mg/kg
smiles,measurement,value
"Nc1ccc(CN2CCN(CC(=O)c3ccccc3)CC2)cc1 [IV-12, N^1-(4-aminobenzyl)-N^4-phenacyl piperazine]",Discriminating effect,does not have obvious discriminating effect
